Where two headings read alike, the source gives them in different places.
Tests used:
human μ opiate receptor = human μ opiate receptor (Homo sapiens, UniProt P35372); assay: μ opiate receptor binding assay with [3H]-naloxone, membrane preparation of CHO-K1 cells (WGA-SPA beads); conditions: for % inhibition (μ) [1 μM] / MOP % Inhibition @1 μM: test concentration 1 μM
ORL1 receptor = ORL1 receptor (Homo sapiens, UniProt P41146); assay: ORL1 receptor binding assay with 3H-nociceptin/orphanin FQ, membranes from recombinant CHO-ORL1 cells (WGA-SPA beads); conditions: for % inhibition (ORL1) [1 μM] / ORL1 % Inhibition @ 1 μM: test concentration 1 μM
[1] = tested on: Female Sprague Dawley rats; assay: Analgesia in the tail flick (focal ray) test in rats, intravenous administration; conditions: @100 μg/kg
[2] = read-out: Ki (μ) mean [μm], mean
[3] = read-out: Ki (ORL1) mean [μm], mean

Protein sequences, listed by entry. Tags and fused reporters are not part of them.
UniProt P35372, whole entry: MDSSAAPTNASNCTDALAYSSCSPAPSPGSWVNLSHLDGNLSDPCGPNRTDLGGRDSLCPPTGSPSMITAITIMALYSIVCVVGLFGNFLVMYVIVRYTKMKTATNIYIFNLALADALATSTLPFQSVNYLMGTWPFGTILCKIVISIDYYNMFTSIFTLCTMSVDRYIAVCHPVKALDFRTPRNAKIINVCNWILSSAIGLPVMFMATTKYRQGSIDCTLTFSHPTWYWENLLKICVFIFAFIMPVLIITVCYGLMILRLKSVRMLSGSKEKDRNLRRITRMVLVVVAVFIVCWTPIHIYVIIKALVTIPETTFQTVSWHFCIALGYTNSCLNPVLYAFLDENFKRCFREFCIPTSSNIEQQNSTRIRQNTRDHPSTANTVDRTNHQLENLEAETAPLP
UniProt P41146, whole entry: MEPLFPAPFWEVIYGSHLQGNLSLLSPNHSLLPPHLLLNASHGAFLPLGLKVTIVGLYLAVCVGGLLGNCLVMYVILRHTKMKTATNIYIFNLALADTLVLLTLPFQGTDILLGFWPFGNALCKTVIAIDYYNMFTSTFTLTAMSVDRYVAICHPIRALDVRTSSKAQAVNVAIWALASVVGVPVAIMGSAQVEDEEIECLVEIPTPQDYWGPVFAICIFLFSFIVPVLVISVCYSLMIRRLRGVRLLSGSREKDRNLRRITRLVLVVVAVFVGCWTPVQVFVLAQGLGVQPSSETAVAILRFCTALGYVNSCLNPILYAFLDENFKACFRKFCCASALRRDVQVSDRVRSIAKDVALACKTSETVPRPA

| Compound | Ki (human μ opiate receptor; [2]) | % inhibition (μ) [1 μM] (human μ opiate receptor) | Ki (ORL1 receptor; [3]) | % inhibition (ORL1) [1 μM] (ORL1 receptor) | Tail flick rat, i.v. % MPE (@μg/kg) [1] | Ki (human μ opiate receptor; read-out: MOP Ki) | MOP % Inhibition @1 μM (human μ opiate receptor) | Ki (ORL1 receptor; read-out: ORL1 Ki) | ORL1 % Inhibition @ 1 μM (ORL1 receptor) |
| --- | --- | --- | --- | --- | --- | --- | --- | --- | --- |
| CN(C)C1(c2cccs2)CCC2(CCN(Cc3cccs3)C2)CC1 (stereo not shown) | 0.83 nM | 99.5% | 0.53 nM | 97.5% |  |  |  |  |  |
| Cc1ccc(C(=O)N2CCC3(CCC(c4cccs4)(N(C)C)CC3)C2)s1 (stereo not shown) | 0.42 nM | 100.67% | 1.4 nM | 94.5% | 100%@100 % MPE |  |  |  |  |
| COc1ccccc1CCC(=O)N1CCC2(CCC(c3ccccc3)(N(C)C)CC2)C1 (stereo not shown) |  |  |  |  |  | 0.6 nM | 99% | 2.2 nM | 88% |
| Cc1ccc(CN2CCC3(CCC(c4cccs4)(N(C)C)CC3)C2)s1 (stereo not shown) | 0.58 nM | 101% | 0.49 nM | 97% | 11%@100 % MPE |  |  |  |  |
| CN(C)C1(c2cccs2)CCC2(CCN(C(=O)c3cccs3)C2)CC1 (stereo not shown) | 0.44 nM | 98.5% | 0.81 nM | 97% |  |  |  |  |  |
| Cc1ccc(C(=O)N2CCC3(CCC(c4ccccc4)(N(C)C)CC3)C2)s1 (stereo not shown) | 0.68 nM | 100% | 1.3 nM | 97.5% |  |  |  |  |  |
| CN(C)C1(c2ccccc2)CCC2(CCN(C(=O)Cc3ccccn3)C2)CC1 (stereo not shown) |  |  |  |  |  | 0.9 nM | 100% | 1.3 nM | 95% |
| CN(C)C1(c2ccccc2)CCC2(CC1)CC(=O)N(Cc1ccc(F)s1)C2 (stereo not shown) | 0.89 nM | 98% | 0.9 nM | 97% |  |  |  |  |  |
| CN(C)[C@]1(c2ccccc2)CC[C@]2(CC1)CC(=O)N(CC(=O)NCCc1ccccc1)C2 |  |  |  |  |  | 0.9 nM | 98% | 2.6 nM | 98% |
| CN(C)C1(c2ccccc2)CCC2(CCN(C(=O)c3ccc(F)s3)C2)CC1 (stereo not shown) | 0.85 nM | 98.5% | 1.09 nM | 96.5% |  |  |  |  |  |
| CN(C)C1(c2cccs2)CCC2(CCN(C(=O)c3ccc(F)s3)C2)CC1 (stereo not shown) | 0.28 nM | 103% | 0.44 nM | 95% |  |  |  |  |  |

Reference: patent US10214520B2, “Substituted azaspiro(4.5)decane derivatives” (priority 2014, dated 2019)
